Patent US20250387492A1, “HSP90-TARGETING CONJUGATES AND FORMULATIONS THEREOF” (Fusion Pharmaceuticals Inc., priority 2018, published 2025)

Assays:
H69 tumor model mice = experiment: Biodistribution in H69 tumor model; details: 5 mg/kg
From the text: (§1) In other studies, biodistribution of the conjugates was studied with H460 and H69 tumor models.

[1] = Lu levels in tumor, kidney and liver of mice at 0.5 mg/kg
H460 tumor model mice = experiment: Biodistribution in H460 tumor model; details: 5 mg/kg
From the text: as §1

SMILES: CCNC(=O)c1nnc(-c2cc(C(C)C)c(O)cc2O)n1-c1ccc(CN2CCN(C(=O)CCNC(=O)[C@@H](CCC(=O)O)NC(=O)[C@@H](CCC(=O)O)NC(=O)[C@@H](CCC(=O)O)NC(=O)CN3CCN4CCN5CCN(CC3)CC(=O)[O][Lu]([O]C(=O)C4)[O]C(=O)C5)CC2)cc1 [Conjugate 2]
- Tumor:liver ratio, 24 h, H69 (H69 tumor model mice): 8.9
- Average Lu in Liver [1]: 0.50 % ID/g
- Tumor:kidney ratio, 24 h, H460 (2) (H460 tumor model mice; 24 h, H460 study (2)): 0.41
- Tumor:liver ratio, 24 h, H460 (2) (H460 tumor model mice; 24 h, H460 study (2)): 49.7
- tumor:liver ratios (comparison) (H460 tumor model mice; H460 and H69 tumor models, Conjugate 1 vs Conjugate 2): better
- tumor:kidney ratio (H460 tumor model mice; H460 tumor model): 0.4
- tumor:liver ratios (H460 tumor model mice; at 24 h, across H460 and H69 tumor models): 9-50
